Laboratory results reported in patent US9457082B2, “Liposome including complex of hydrophobic active ingredient and polypeptide and use of the liposome” (Samsung Electronics Co., Ltd., priority 2013, dated 2016).

System: HepG2 liver carcinoma cells
Assay: Absorption of HSA-FITC in cells, fluorescence microscopy
Format: cell-based
Conditions: HSA-FITC 1.25-10 mg/ml, about 20,000 HepG2 cells, 37° C., 48 hours
Experimental: Absorption efficiency of HSA (Abcam)-FITC in cells was confirmed.
In detail, HSA-FITC at a variety of concentrations of 1.25 mg/ml, 2.5 mg/ml, 5 mg/ml and 10 mg/ml was added to about 20,000 HepG2 liver carcinoma cells, followed by being incubated at a temperature of 37° C. for 48 hours. Next, the incubated cells were washed out with PBS. HSA absorbed in the cells was confirmed by a fluorescence microscope, and a graph showing average fluorescence intensity was shown in FIG. 6 (Normalization by Imaging Area, n=5, ANOVA and Tukey's test, mean±SEM, *: P<0.05, **: P<0.01, ***: P<0.001) (x-axis: concentration of HSA-FITC, y-axis: average fluorescence intensity of HSA-FITC).

For “HSA: human serum albumin conjugated to fluorescein isothiocyanate (FITC)”, the “absorption in cells (average fluorescence intensity)” value was “efficiently absorbed in the cells”.
